# About 11,000 (3.5%) of roughly 310,000 compounds were called active. Listed are the inconclusive results; actives and inactives stand elsewhere. The call rests on the fitted dose curve; in most records, active means well fitted inhibition curve with a large enough effect; inconclusive means small, poorly fitted or top-dose-only effect, or another doubt; inactive means no such curve, though single readings can be large or run the other way.
# Target: 4'-phosphopantetheinyl transferase ffp (Bacillus subtilis) (UniProt Q9F4F7)
# Experiment: qHTS Assay for Inhibitors of Bacillus subtilis Sfp phosphopantetheinyl transferase (PPTase);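 further: the enzyme is Sfp with the accession as filed and its product quenches rhodamine fluorescence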
# Conditions: Biochemical Sfp PPTase activity
# Potency means the concentration at half of the fitted maximal effect.
row,SMILES,Potency
1,O=[N+]([O-])CC(O)c1ccc([N+](=O)[O-])cc1 (stereo unspecified),inconclusive: 70.8 µM
2,O=C(O)COc1ccc([As](=O)(O)O)cc1[N+](=O)[O-],inconclusive: 89.1 µM
3,CCOC(=O)Nc1ccc([As](=O)(O)O)c(O)c1,inconclusive: 89.1 µM
4,CN(C(=O)Cc1ccc(Cl)c(Cl)c1)[C@H]1CCCC[C@@H]1N1CCCC1,inconclusive: 56.2 µM
5,CCNC(=S)/N=C(\N)N[N+](=O)[O-],inconclusive: 56.2 µM
6,CC(=O)Nc1ccc(Oc2c([N+](=O)[O-])cc([N+](=O)[O-])cc2[N+](=O)[O-])cc1,inconclusive: 35.5 µM
